From PubChem BioAssay
PDI turbidity = blocks human protein disulfide isomerase activity | P07237 | PDI insulin aggregation turbidity, A650, 90 min | inhibition, % at 10 µM | 350,000 tested, 0.052% active | AID 588391;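 active = mean inhibition across replicates of 30% or more, whatever share of single replicates reach that level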
SIRT5 inh = inhibitors of human sirtuin-5 desuccinylase. inhibition, % at 15 µM. Q9NXA8. Purified SirT5, succinyl-peptide AMC, trypsin-coupled fluorescence. 330,000 tested, 1.1% active. AID 652115; in the data active = inhibition above about 15%
ERp5 block = ERp5 (human) disulfide isomerase inhibition; Q15084; ERp5 insulin aggregation, absorbance 650 nm, 90 min; inhibition, % at 9.99 µM; 350,000 tested, 0.05% active; AID 651711;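 active = mean replicate inhibition above about 25%, with every replicate also reaching it, limit read from the data, passing the limit was not always enough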
FGF22 binding = shifts melting point of recombinant human FGF22; AID 651658; activity (Tm shift, normalised), % at 9.99 µM; 340,000 tested, 1.5% active; recombinant FGF22 thermal shift, SYPRO orange fluorescence; percent of sucrose octasulfate shift, DMSO zero; Q9HCT0;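 active = mean Tm shift, scaled 0 neutral to 100 positive control, at about 1.3% or above, every replicate too, limit read from the data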
Yeast UUG start = alters start codon recognition fidelity in yeast. S. cerevisiae UUG-firefly luciferase reporter, luminescence/redox ratio. 350,000 tested, 0.13% active. activity score, % at 18.7 µM. AID 602363;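 active means replicate mean at a twofold rise or more, about +100% in these data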;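 further: firefly luciferase made from a UUG start codon reports start codon fidelity; reporter light over untreated wells divided by growth signal over untreated wells; some hits fall short of that in this replicate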
S100A4 MyoIIA = inhibitors of human S100A4 binding to myosin IIA peptide; P26447; S100A4/TAMRA-MyoIIA peptide fluorescence polarization; inhibition, % at 10.7 µM; 360,000 tested, 0.14% active;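 active = mean inhibition of at least 70% across replicates, with every replicate also reaching that level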
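Compound dosing: one dose per compound; test system: human S100A4 monomer with TAMRA-labelled myosin IIA peptide; probe or stimulus: TAMRA-labelled myosin IIA heavy-chain peptide probe, 5 nM; medium: HEPES buffer with Ca2+, pH 7.2; schedule: 5 min incubation before reading; benchmarks: neutral control DMSO, positive control TFP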
* marks the source's active call; other numbers are inactive results; ! = not active in a repeat. A selection: hits, their analogues and other compounds. The true share with any hit is near 2.2%.

Screening Cc1ccc(/C=C/C(=O)O)cc1S(=O)(=O)N1CCc2ccccc2C1 returned PDI turbidity -1, SIRT5 inh 1, ERp5 block -13, FGF22 binding 43* and S100A4 MyoIIA 4.
Screening Cc1ccc(/C=C/C(=O)O)cc1S(=O)(=O)Nc1ccc(C(=O)O)cc1 returned PDI turbidity 7, SIRT5 inh 0, ERp5 block -1, FGF22 binding 0, Yeast UUG start -10 and S100A4 MyoIIA -2.
For Cc1ccc(/C=C/C(=O)O)cc1S(=O)(=O)Nc1ccccc1C(=O)O the results were PDI turbidity 13, SIRT5 inh 0, ERp5 block 2, FGF22 binding 43* and S100A4 MyoIIA 6.
O=C(NCc1ccccn1)c1ccc(N2CCCC2)c([N+](=O)[O-])c1 was read as PDI turbidity 13, SIRT5 inh 0, ERp5 block 1, FGF22 binding 43*, Yeast UUG start -19 and S100A4 MyoIIA 4.
Screening CC=Cc1ccc2n(c1=O)C[C@H]1[C@H](CO)[C@@H](C(=O)NCC)[C@@H]2N1Cc1nccs1 (mixture of isomers) returned SIRT5 inh -17, ERp5 block 10, FGF22 binding 0 and S100A4 MyoIIA -16.
For Cc1noc(C)c1C(=O)Nc1nc(-c2cccs2)cs1 the results were PDI turbidity 3, SIRT5 inh -1, ERp5 block -2, FGF22 binding 0, Yeast UUG start -16 and S100A4 MyoIIA 10.
`CCc1noc(C)c1C(=O)Nc1nc(-c2cccs2)cs1` gave PDI turbidity 1, SIRT5 inh 15*, ERp5 block 1, FGF22 binding -1, Yeast UUG start 5 and S100A4 MyoIIA -7.
For CN1CCN(Cc2nc3ccccc3c(=O)n2Cc2nc(-c3ccc4ccccc4c3)cs2)CC1 the results were PDI turbidity 44*!, SIRT5 inh 1, ERp5 block 13, FGF22 binding 0 and S100A4 MyoIIA 2.
`CN(C=O)c1ccc(CSc2ccccc2)cc1` gave PDI turbidity 10, SIRT5 inh 36*, ERp5 block -10, FGF22 binding 0, Yeast UUG start -11 and S100A4 MyoIIA 0.
For CC(C)CNC(=O)c1ccccc1NC(=O)c1ccc(CSc2ccccc2)cc1 the results were PDI turbidity -3, SIRT5 inh -4, ERp5 block 14, FGF22 binding 0, Yeast UUG start -8 and S100A4 MyoIIA -3.
For CC(C)(C)OC(=O)N1CCC[C@H]1C(=O)N1CCC[C@H]1C(=O)NCc1ccc(F)cc1F the results were SIRT5 inh 17*, ERp5 block -4, FGF22 binding 0 and S100A4 MyoIIA -7.
`CC(C)(C)OC(=O)N1CCC[C@H]1C(=O)NCc1ccc(Cl)cc1Cl` gave PDI turbidity -1, SIRT5 inh -4, ERp5 block -2, FGF22 binding 65* and S100A4 MyoIIA -3.
`CC1CCC/C(=C\Nc2ccc(C(=O)O)c(O)c2)C1=O` (stereo unspecified) gave PDI turbidity 6, SIRT5 inh 29*, ERp5 block 7, FGF22 binding 0 and S100A4 MyoIIA 1.
`CC1CCC/C(=C\Nc2ccc(C(=O)O)cc2)C1=O` (stereo unspecified) gave PDI turbidity -9, SIRT5 inh 6, ERp5 block 10, FGF22 binding 0 and S100A4 MyoIIA -6.
Screening CC(=O)Nc1ccc(N/C=C2/CCCC2=O)cc1 returned PDI turbidity -2, SIRT5 inh 0, ERp5 block 5, FGF22 binding 0, Yeast UUG start -2 and S100A4 MyoIIA 4.
For O=C1CCCC/C1=C\Nc1ccc(C(=O)O)c(O)c1 the results were PDI turbidity 17, SIRT5 inh 23*, ERp5 block 2, FGF22 binding 0 and S100A4 MyoIIA 5.
For COCCNC(=O)C[C@H]1CC[C@@H]2[C@@H](COc3ccc(NC(=O)Cc4ccccc4)cc3C(=O)N2C)O1 the results were SIRT5 inh 6, ERp5 block 1, FGF22 binding 0 and S100A4 MyoIIA 1.
For O=S(=O)(Nc1cc(Sc2ncn[nH]2)c(O)c2ccccc12)c1ccccc1 the results were PDI turbidity -5, SIRT5 inh 1, ERp5 block -4, FGF22 binding 43* and S100A4 MyoIIA 5.
For Cc1cc(O)c(Sc2ncn[nH]2)cc1NS(=O)(=O)c1ccc(Cl)cc1 the results were PDI turbidity 4, SIRT5 inh 1, ERp5 block 4, FGF22 binding -1, Yeast UUG start -14 and S100A4 MyoIIA -7.
Screening CCOC(=O)/C(N=Nc1c(C)n(C)n(-c2ccccc2)c1=O)=C(/O)c1ccccc1 returned PDI turbidity -4, SIRT5 inh 0, ERp5 block 6, FGF22 binding 43* and S100A4 MyoIIA 5.
For Cc1c(N=N/C(C(=O)Nc2ccccc2)=C(/O)c2ccccc2)c(=O)n(-c2ccccc2)n1C the results were PDI turbidity 3, SIRT5 inh -2, ERp5 block -4, FGF22 binding 0 and S100A4 MyoIIA -3.
C[C@H](CO)N1C[C@H](C)[C@H](CN(C)C(=O)CN(C)C)Oc2ncc(-c3ccc(C#N)cc3)cc2C1=O was read as SIRT5 inh -1, ERp5 block 3, FGF22 binding 0, Yeast UUG start -2 and S100A4 MyoIIA 1.
`O=C(Nc1cccc(Cl)c1)N[C@H]1CC[C@@H](CCNC(=O)C2CCOCC2)O[C@H]1CO` gave SIRT5 inh 0, ERp5 block -3, FGF22 binding 0, Yeast UUG start 5 and S100A4 MyoIIA -12.
For Cc1noc(C)c1COc1ccc(C(=O)N2CCN(S(=O)(=O)c3cccc(F)c3)CC2)cc1 the results were PDI turbidity -3, SIRT5 inh 28*, ERp5 block 6, Yeast UUG start -2 and S100A4 MyoIIA -6.
`Cc1noc(C)c1COc1ccc(C(=O)N2CCN(S(=O)(=O)c3ccccc3)CC2)cc1` gave PDI turbidity -4, SIRT5 inh 1, ERp5 block -5, FGF22 binding 0, Yeast UUG start -5 and S100A4 MyoIIA 0.
C/C(=N\Nc1ccc(C(=O)O)cc1)c1ccc(Cl)s1 was read as PDI turbidity 8, SIRT5 inh 23*, ERp5 block -2, FGF22 binding 0, Yeast UUG start -32 and S100A4 MyoIIA -2.
C/C(=N\Nc1ccc(C(=O)O)cc1)c1ccc(Br)cc1 was read as PDI turbidity -2, SIRT5 inh 21*, ERp5 block 2, FGF22 binding 0, Yeast UUG start -11 and S100A4 MyoIIA -6.
CCOc1ccccc1NC(=O)C1CCN(c2ccc(S(=O)(=O)N3CCCC3)cc2)CC1 was read as PDI turbidity 6, SIRT5 inh 17*, ERp5 block -2, FGF22 binding 0, Yeast UUG start 5 and S100A4 MyoIIA -3.

A portion from further up, as a working copy:
C/C(=N\Nc1ccc(C(=O)O)cc1)c1ccc(Cl)s1 was read as PDI turbidity 8, SIRT5 inh 23*, ERp5 block -2, FGF22 binding 0, Yeast UUG start -32 and S100A4 MyoIIA -2.
C/C(=N\Nc1ccc(C(=O)O)cc1)c1ccc(Br)cc1 was read as PDI turbidity -2, SIRT5 inh 21*, ERp5 block 2, FGF22 binding 0, Yeast UUG start -11 and S100A4 MyoIIA -6.
CCOc1ccccc1NC(=O)C1CCN(c2ccc(S(=O)(=O)N3CCCC3)cc2)CC1 was read as PDI turbidity 6, SIRT5 inh 17*, ERp5 block -2, FGF22 binding 0, Yeast UUG start 5 and S100A4 MyoIIA -3.
